# Measurements as given in patent US20060183773A1, “Uses of methylphenidate derivatives” (priority 2005, published 2006).
# Test system: IL-8
# Test: IL-8 release by TNFα-stimulated HUVECs, ELISA
# Assay type: cell-based, human
# Details: 10 ng/ml TNFα + 10 μM; 18 hours; TNFα + water 35572
# Method: Passage 4 HUVECs, human source lot number 8710 (obtained from ATCC), were put into the wells of a 24-well tissue culture plate at 5,000 cells/well in EGM-2 medium (obtained from Cambrex) and cultured for 72 hours at 37° C. and 5% CO2. […] After incubation for 1 hour at 37° C. and 5% CO2, TNFα (obtained from Pierce) was added to give a final concentration of 10 ng/ml, and the cells were incubated for an additional 18 hours at 37° C. and 5% CO2. After this incubation, the supernatants were collected, and the amount of IL-8 in the supernatants determined by ELISA as described in Example 4.
smiles,measurement,value
"C[C@@H]1C[C@H]2[C@@H]3CCC4=CC(=O)C=C[C@]4(C)[C@@]3(F)[C@@H](O)C[C@]2(C)[C@@]1(O)C(=O)CO [dexamethasone, reference compound]",Mean IL-8,35952 ± 2197.14 pg/mL
